PubChem BioAssay AID1362 (SRMLSC, 2008)
Only a part is listed here, and it is no random draw. Activity calls are given as the source filed them. Cut-off read from the data, not from the text of the source: active = inhibition above about 58%; inactive = the rest, inconclusive results apart; tested in S. cerevisiae.

Assay: growth inhibition of WT strain, primary screen, mitochondrial fusion inhibitor project, WT and mutant strains, chemical genetic (AID 1362)
Conditions: mitochondrial fusion phenotypic screen, at 10 µM, stronger effect = higher value

Row | SMILES | inhibition
1 | Cc1c(NP(C)(=O)Oc2ccc(C(C)C)cc2)c(=O)n(-c2ccccc2)n1C (stereo not drawn) | inactive: 3.51%
2 | O=[N+]([O-])c1cc([N+](=O)[O-])c(Nc2ccccn2)c([N+](=O)[O-])c1 | inactive: 22.8%
3 | CC(C)CC(=O)NC(Sc1ccc(Cl)cc1)C(Cl)(Cl)Cl (stereo not drawn) | inactive: 31.4%
4 | Oc1ccccc1CNc1ccccn1 | inactive: -13.8%
5 | O=C(NC(Sc1ccncn1)C(Cl)(Cl)Cl)c1ccccc1 (stereo not drawn) | inactive: -2.56%
6 | Cc1c2non([O-])c-2c(C)[n+](=O)[n+]1[O-] | inactive: -7.51%
7 | CP(=O)(Nc1ccccn1)Oc1ccccc1 (stereo not drawn) | inactive: -20.6%
8 | COc1ccccc1OP(C)(=O)Nc1ccc(C)cc1C (stereo not drawn) | inactive: 19.6%
9 | CCc1ccc(OP(C)(=O)O)cc1 | inactive: 10.4%
10 | NC(=O)c1cc([N+](=O)[O-])cc([N+](=O)[O-])c1N | inactive: -11.4%
11 | Cc1ccc(N/C(=N/P(=O)(N2CCOCC2)N2CCOCC2)N2CCOCC2)cc1 | inactive: -6.7%
12 | COc1ccccc1OP(=O)(Nc1ccc(C)cn1)Oc1ccccc1OC | inactive: 5.96%
13 | COc1ccc(OP(C)(=O)Nc2ccccn2)cc1 (stereo not drawn) | inactive: 4.9%
14 | CN1CCCC(OC(=O)C(c2ccccc2)c2ccccc2)C1 (stereo not drawn) | inactive: -17.5%
15 | CN(C)CCOC(=O)C(O)(c1ccccc1)C1CCCC1 (stereo not drawn) | inactive: -5.82%
16 | Clc1ccc(Cl)c(NC2=NCC(CBr)S2)c1 (stereo not drawn) | inactive: 5.88%
17 | Cc1nc2ccc3ccccc3c2o1.O=[N+]([O-])c1cc([N+](=O)[O-])c(O)c([N+](=O)[O-])c1 | inactive: -3.54%
18 | CCN(N=Nc1nonc1N)c1nonc1N | inactive: -17.8%
19 | CP(=O)(Nc1ccc(Cl)cc1Cl)Oc1ccccc1 (stereo not drawn) | inactive: -7.07%
20 | CP(=O)(OCCOc1ccccc1)OCCOc1ccccc1 | inactive: -19%
21 | Cc1cc(C)cc(OP(C)(=O)Nc2cccc(C(F)(F)F)c2)c1 (stereo not drawn) | inactive: -10.4%
22 | Cc1cc(SC(NC(=O)c2ccc(F)cc2)C(Cl)(Cl)Cl)ncn1 (stereo not drawn) | inactive: -3.5%
23 | CCOP(=O)(Nc1ccccc1)OCC | inactive: 6.68%
24 | COc1ccccc1OP(C)(=O)Nc1ccc(C)c(C)c1 (stereo not drawn) | inactive: -9.48%
25 | COc1ccc(OP(C)(=O)Nc2ccccc2Br)cc1 (stereo not drawn) | inactive: 2.36%
26 | O=[N+]([O-])c1ncn(CCn2ncnc2[N+](=O)[O-])n1 | inactive: 3.79%
27 | CCOC(=O)c1ccc(NP(C)(=O)Oc2ccc(Cl)cc2)cc1 (stereo not drawn) | inactive: 8.42%
28 | CP(=O)(OC12CC3CC(CC(C3)C1)C2)OC12CC3CC(CC(C3)C1)C2 | inactive: 57.9%
